Test results from US20190134153A1, “IMMUNOMODULATORY EFFECT OF INHALED KINASE INHIBITOR PEPTIDES IN LUNG” (MOERAE MATRIX, INC., priority 2017, published 2019).

Tests used:
Test in all cases: Kinase Profiling Assay
Type in all cases: biochemical
Settings in all cases: 100 μM
[1] = biological target: PKCη(h) (Homo sapiens, UniProt P24723)
[2] = biological target: Plk1(h) (Homo sapiens, UniProt P53350)
[3] = biological target: TLK2(h) (Homo sapiens, UniProt Q86UE8)
[4] = biological target: PDGFRα(D842V)(h) (Homo sapiens, UniProt P16234, D842V)
[5] = biological target: c-RAF(h) (Homo sapiens, UniProt P04049)
[6] = biological target: MRCKα(h) (Homo sapiens, UniProt Q5VT25)
[7] = biological target: cKit(V560G)(h) (Homo sapiens, UniProt P10721, V560G)
[8] = biological target: FGFR2(N549H)(h) (Homo sapiens, UniProt P21802, N549H)
[9] = biological target: GRK5(h) (Homo sapiens, UniProt P34947)
[10] = biological target: Tie2(R849W)(h) (Homo sapiens, UniProt Q02763, R849W)
[11] = biological target: Met(Y1248H)(h) (Homo sapiens, UniProt P08581, Y1230H)
[12] = biological target: CLK2(h) (Homo sapiens, UniProt P49760)
[13] = biological target: BTK(h) (Homo sapiens, UniProt Q06187)
[14] = biological target: MAPK1(h) (Homo sapiens, UniProt P27361)
[15] = biological target: PAK6(h) (Homo sapiens, UniProt Q9NQU5)
[16] = biological target: T1, JAK3(h) (Homo sapiens, UniProt P52333)
T1 sequence (P52333 1-1124): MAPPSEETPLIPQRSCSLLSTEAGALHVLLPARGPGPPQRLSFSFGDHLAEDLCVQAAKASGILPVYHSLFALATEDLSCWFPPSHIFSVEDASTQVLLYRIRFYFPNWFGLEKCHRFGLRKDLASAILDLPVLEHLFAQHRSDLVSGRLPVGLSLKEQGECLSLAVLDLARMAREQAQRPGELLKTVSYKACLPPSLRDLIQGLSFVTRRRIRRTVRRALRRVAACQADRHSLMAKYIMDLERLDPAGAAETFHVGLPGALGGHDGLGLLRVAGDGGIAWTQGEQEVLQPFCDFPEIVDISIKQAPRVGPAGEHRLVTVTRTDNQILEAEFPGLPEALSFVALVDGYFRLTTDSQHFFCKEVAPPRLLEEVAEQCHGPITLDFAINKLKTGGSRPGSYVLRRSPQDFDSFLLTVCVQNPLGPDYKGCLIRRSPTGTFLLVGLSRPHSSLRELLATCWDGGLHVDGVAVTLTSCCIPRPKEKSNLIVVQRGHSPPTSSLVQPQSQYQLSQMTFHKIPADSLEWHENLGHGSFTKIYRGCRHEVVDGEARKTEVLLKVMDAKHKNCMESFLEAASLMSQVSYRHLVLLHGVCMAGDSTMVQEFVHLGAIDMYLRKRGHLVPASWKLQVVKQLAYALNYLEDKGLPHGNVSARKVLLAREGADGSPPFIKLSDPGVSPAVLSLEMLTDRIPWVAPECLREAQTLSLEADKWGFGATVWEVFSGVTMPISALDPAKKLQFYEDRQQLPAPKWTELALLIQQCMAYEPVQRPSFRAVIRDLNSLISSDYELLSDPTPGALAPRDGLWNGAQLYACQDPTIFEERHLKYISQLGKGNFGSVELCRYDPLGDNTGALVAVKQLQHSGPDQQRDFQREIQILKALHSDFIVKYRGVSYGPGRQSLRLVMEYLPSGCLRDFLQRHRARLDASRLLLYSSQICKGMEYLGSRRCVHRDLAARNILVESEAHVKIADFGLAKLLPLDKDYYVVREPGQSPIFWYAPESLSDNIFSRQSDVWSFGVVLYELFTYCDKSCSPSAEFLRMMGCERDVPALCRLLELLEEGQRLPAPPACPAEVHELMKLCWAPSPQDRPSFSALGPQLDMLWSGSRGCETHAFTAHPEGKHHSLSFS

[17] = biological target: CK1γ1(h) (Homo sapiens, UniProt Q9HCP0)
[18] = biological target: CK2α2(h) (Homo sapiens, UniProt P19784)
[19] = biological target: ACK1(h) (Homo sapiens, UniProt Q07912)
[20] = biological target: IGF-1R(h) (Homo sapiens, UniProt P08069)
[21] = biological target: PKA(h) (Homo sapiens, UniProt P17612)
[22] = biological target: FGFR3(h) (Homo sapiens, UniProt P22607)
[23] = biological target: FAK(h) (Homo sapiens, UniProt Q05397)
[24] = biological target: Snk(h) (Homo sapiens, UniProt Q9NYY3)
[25] = biological target: Met(Y1248D)(h) (Homo sapiens, UniProt P08581, Y1230D)
[26] = biological target: T2, PAR-1Bα(h) (Homo sapiens, UniProt Q7KZI7)
T2 sequence (Q7KZI7 1-725 isoform Q7KZI7-4): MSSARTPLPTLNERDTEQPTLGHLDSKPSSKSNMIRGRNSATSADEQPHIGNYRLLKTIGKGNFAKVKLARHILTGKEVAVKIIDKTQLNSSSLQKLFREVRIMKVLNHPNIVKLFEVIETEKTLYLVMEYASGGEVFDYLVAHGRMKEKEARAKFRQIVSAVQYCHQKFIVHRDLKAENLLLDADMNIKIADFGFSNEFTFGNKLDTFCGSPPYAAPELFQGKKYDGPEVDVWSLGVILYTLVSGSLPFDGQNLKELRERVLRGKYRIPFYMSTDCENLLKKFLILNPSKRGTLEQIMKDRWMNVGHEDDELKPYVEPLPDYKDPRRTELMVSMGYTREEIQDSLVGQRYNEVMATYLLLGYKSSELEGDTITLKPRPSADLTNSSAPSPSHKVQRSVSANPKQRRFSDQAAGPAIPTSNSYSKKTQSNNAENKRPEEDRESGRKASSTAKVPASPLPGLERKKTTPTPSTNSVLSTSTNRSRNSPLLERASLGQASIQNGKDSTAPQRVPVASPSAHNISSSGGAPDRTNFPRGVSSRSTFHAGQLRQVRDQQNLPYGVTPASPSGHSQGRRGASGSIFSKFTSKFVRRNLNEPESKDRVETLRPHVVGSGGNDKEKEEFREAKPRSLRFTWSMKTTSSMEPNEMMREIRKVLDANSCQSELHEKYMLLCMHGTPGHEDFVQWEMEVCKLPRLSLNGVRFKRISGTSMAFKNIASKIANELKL

## FAKLAARLYRKALARQLGVAA [MMI-0300]
[1]
  % activity: 103%
[2]
  % activity: 115%
[3]
  % activity: 114%
[4]
  % activity: 114%
[5]
  % activity: 107%
[6]
  % activity: 104%
[7]
  % activity: 102%
[8]
  % activity: 116%
[9]
  % activity: 136%
[10]
  % activity: 117%
[11]
  % activity: 117%
[12]
  % activity: 103%
[13]
  % activity: 102%
[14]
  % activity: 107%
[15]
  % activity: 104%
[16]
  % activity: 121%
[17]
  % activity: 111%
[18]
  % activity: 105%
[19]
  % activity: 104%
[20]
  % activity: 119%
[21]
  % activity: 119%
[22]
  % activity: 102%
[23]
  % activity: 111%
[24]
  % activity: 114%
[25]
  % activity: 102%
[26]
  % activity: 113%
